Reference: EP0874630B1, “TOP[…] POISON AND BIS-DIOXY[…] COMBINATION THERAPY” (priority 1996, dated 1997)
Several values for one entry are separate records, joined by “and”; a condition that tells them apart may be missing. Equal values may be shown once. Read-outs that look alike come from different tables or passages of the source.

Assays:
mice [1] = test: Lethality in healthy mice after drugs given once i.p., with or without ICRF-187 pretreatment (survivors/treated); format: in vivo; details: 11 mice
Method: Toxicity was evaluated by weight and leucocyte counts.
The lethality of etoposide is decreased by pretreatment with ICRF-187 in low, non-toxic doses. Drugs were given once i.p. ICRF-187 was given immediately before etoposide.
The compiled data from two experiments showing that paclitaxel induced lethality cannot be protected by pretreamtment with ICRF-187. Groups of 11 mice were treated once i.p. with or without pretreatment with ICRF-187.

mice [2] = tested on: mice
Method: First generation hybrids of female random bred Swiss mice and male inbred DBA (NDF1-hybrid) mice were used as previously described (5). The mice weighed between 19 and 21 g at the start of the experiments. […] Lethality was recorded and surviving mice were sacrificed after 60 days. Toxicity was evaluated by weight and leucocyte counts. For weight evaluations mice were treated with drugs, marked and weighed for eleven consecutive days. Blood for leucocyte counts was obtained from a tail vein and counted in a hemocytometer on days 3, 5 and 7 after treatment.

L1210 tumour cells = test: Brain tumour model, L1210 tumour cells inoculated into the cerebrum (increase in life span); format: in vivo; details: Etoposide 33 mg/kg i.p. on day 2; 10^4 L1210 tumour cells i.c. on day 0; groups of 18 mice
Method: (§1) In therapy studies, mice were inoculated i.p. with either 10^5 L1210 leukemia cells or 15x10^6 Ehrlich's ascites tumour cells on day 0 and treated with drugs i.p. on day 4 after inoculation. The brain tumour model consisted of 10^4 L1210 cells or 15x10^4 Ehrlich's ascites tumour cells in a volume of 30 µl of isotonic sodium chloride inoculated on day 0 into the temporal region followed by treatment i.p. on day 2, 3 or 4 after inoculation.
The hypothesis that this difference in increase in life span could be caused by the metastatic potential of the L1210 leukemia cells and a possible difference in transport of the two drugs across the blood brain barrier was investigated.
Groups of 18 mice were inoculated on day 0 and treated on day 2. The Mann-Whitney test was used for statistical evaluation.

[3] = tested on: Ehrlich's ascites tumour cells; test: Brain tumour model, Ehrlich's ascites tumour cells inoculated into the cerebrum (increase in life span); format: in vivo; details: Etoposide 33 mg/kg on day 2; 15x10^5 Ehrlich's ascites tumour cells i.c. on day 0; groups of 9 mice
Method: as §1
Groups of 9 mice were inoculated on day O and treated on day 2. The Mann-Whitney test was used for statistical evaluation.
The results in Table 6A show an increased life span from 11% to 33% corresponding to 300% compared to the increased life span in mice treated with topoisomerase II poison alone in an equitoxic dose.

`COc1cc([C@@H]2c3cc4c(cc3[C@@H](O[C@@H]3O[C@@H]5CO[C@@H](C)O[C@H]5[C@H](O)[C@H]3O)[C@H]3COC(=O)[C@H]23)OCO4)cc(OC)c1O` [etoposide] was tested, and the Survivors / treated (mice [1]; Table 1, VP-16 90 mg/kg alone, once i.p., 90 mg/kg) was 2/11 (18%) and 1/11 (9%) and 3/11 (27%) and 5/11 (45%), the Survivors / treated (mice [1]; Table 2, VP-16 90 mg/kg alone, 90 mg/kg) was 8/11 (73%) and 3/11 (27%) and 1/11 (9%) and the Survivors / treated (mice [1]; Table 2, VP-16 100 mg/kg alone, 100 mg/kg) was 3/11 (27%) and 2/11 (18%). For the same compound, the Survivors / treated (mice [1]; Table 2, VP-16 120 mg/kg alone, 120 mg/kg) was 1/11 (9%) and 0/11 (0%), the Survivors / treated (mice [1]; Table 2, VP-16 140 mg/kg alone, 140 mg/kg) was 2/11 (18%) and 1/11 (9%) and 4/11 (36%) and 0/11 (0%) and the Survivors / treated (mice [1]; Table 2, VP-16 180 mg/kg alone, 180 mg/kg) was 0/11 (0%) and 2/11 (18%). The Survivors / treated (mice [1]; Table 2, VP-16 200 mg/kg alone, 200 mg/kg) was 0/11 0% and 2/11 (18%) and 1/11 1 (9%), the Survivors / treated (mice [2]; etoposide 50 mg/kg, treatment day 1,3, and 5 (every two days)) was 1/11 and the Survivors / treated (mice [2]; etoposide 50 mg/kg, treatment day 1,5, and 9 (every four days)) was 9/11. For the same compound, the Survivors / treated (mice [2]; etoposide 50 mg/kg, treatment day 1,8, and 15 (every seven days)) was 9/11, the Survivors / treated (mice [2]; etoposide 70 mg/kg, treatment day 1,3, and 5 (every two days)) was 0/11 and the Survivors / treated (mice [2]; etoposide 70 mg/kg, treatment day 1,5, and 9 (every four days)) was 2/11. For the same compound, the Survivors / treated (mice [2]; etoposide 70 mg/kg, treatment day 1,8, and 15 (every seven days)) was 0/11, the Survivors / treated (mice [2]; etoposide 90 mg/kg, treatment day 1,3, and 5 (every two days)) was 0/11 and the Survivors / treated (mice [2]; etoposide 90 mg/kg, treatment day 1,5, and 9 (every four days)) was 0/11. For the same compound, the Survivors / treated (mice [2]; etoposide 90 mg/kg, treatment day 1,8, and 15 (every seven days)) was 0/11, the “ILS(%)” value (L1210 tumour cells) was 13% and 21% and the “ILS(%)” value [3] was 11%.
